Experimental data from patent publication US20190030149.

Target: T1, peptide CRMFPNAPYL (SEQ ID NO: 13), Example 2
T1 chain: CRMFPNAPYL

B1: Endoplasmic reticulum aminopeptidase 1 (protein)
chain: MVFLPLKWSLATMSFLLSSLLALLTVSTPSWCQSTEASPKRSDGTPFPWNKIRLPEYVIPVHYDLLIHANLTTLTFWGTTKVEITASQPTSTIILHSHHLQISRATLRKGAGERLSEEPLQVLEHPRQEQIALLAPEPLLVGLPYTVVIHYAGNLSETFHGFYKSTYRTKEGELRILASTQFEPTAARMAFPCFDEPAFKASFSIKIRREPRHLAISNMPLVKSVTVAEGLIEDHFDVTVKMSTYLVAFIISDFESVSKITKSGVKVSVYAVPDKINQADYALDAAVTLLEFYEDYFSIPYPLPKQDLAAIPDFQSGAMENWGLTTYRESALLFDAEKSSASSKLGITMTVAHELAHQWFGNLVTMEWWNDLWLNEGFAKFMEFVSVSVTHPELKVGDYFFGKCFDAMEVDALNSSHPVSTPVENPAQIREMFDDVSYDKGACILNMLREYLSADAFKSGIVQYLQKHSYKNTKNEDLWDSMASICPTDGVKGMDGFCSRSQHSSSSSHWHQEGVDVKTMMNTWTLQKGFPLITITVRGRNVHMKQEHYMKGSDGAPDTGYLWHVPLTFITSKSDMVHRFLLKTKTDVLILPEEVEWIKFNVGMNGYYIVHYEDDGWDSLTGLLKGTHTAVSSNDRASLINNAFQLVSIGKLSIEKALDLSLYLKHETEIMPVFQGLNELIPMYKLMEKRDMNEVETQFKAFLIRLLRDLIDKQTWTDEGSVSERMLRSQLLLLACVHNYQPCVQRAEGYFRKWKESNGNLSLPVDVTLAVFAVGAQSTEGWDFLYSKYQFSLSSTEKSQIEFALCRTQNKEKLQWLLDESFKGDKIKTQEFPQILTLIGRNPVGYPLAWQFLRKNWNKLVQKFELGSSSIAHMVMGTTNQFSTRTRLEEVKGFFSSLKENGSQLRCVQQTIETIEENIGWMDKNFDKIRVWLQSEKLERM
- formation rate (%) of the peptide obtained by trimming (SEQ ID NO: 2), 1 hr later: 25.5%
- formation rate (%) of the peptide obtained by trimming (SEQ ID NO: 2), 2 hr later: 35.2%
- formation rate (%) of the peptide obtained by trimming (SEQ ID NO: 2), 4 hr later: 46.2%
- formation rate (%) of the peptide obtained by trimming (SEQ ID NO: 2), 8 hr later: 47.6%
